Columns and labels:
[1] = tested on: cancer patients (lung, esophagus, liver, stomach); conditions: gradually-increased doses; cited from earlier work
mixed tumor types = conditions: occasional; midday insulin dose withheld

For insulin, the tolerability [1] is listed as “generally well tolerated” and the hypoglycemia (mixed tumor types) is listed as “hypoglycemia”.

From patent US5840770A, “Method of killing tumor cells” (Hill Medical Corporation, priority 1997, dated 1998)
